One may read the Ki as a measure of affinity in units of concentration, obtained from inhibition or displacement.

By UniProt entry, the sequences of proteins in these tests, tags left out. Where a name states a change or a piece, a line headed by the entry shows the natural chain unless it says otherwise. Residues count along the entry.
UniProt P14416, whole entry: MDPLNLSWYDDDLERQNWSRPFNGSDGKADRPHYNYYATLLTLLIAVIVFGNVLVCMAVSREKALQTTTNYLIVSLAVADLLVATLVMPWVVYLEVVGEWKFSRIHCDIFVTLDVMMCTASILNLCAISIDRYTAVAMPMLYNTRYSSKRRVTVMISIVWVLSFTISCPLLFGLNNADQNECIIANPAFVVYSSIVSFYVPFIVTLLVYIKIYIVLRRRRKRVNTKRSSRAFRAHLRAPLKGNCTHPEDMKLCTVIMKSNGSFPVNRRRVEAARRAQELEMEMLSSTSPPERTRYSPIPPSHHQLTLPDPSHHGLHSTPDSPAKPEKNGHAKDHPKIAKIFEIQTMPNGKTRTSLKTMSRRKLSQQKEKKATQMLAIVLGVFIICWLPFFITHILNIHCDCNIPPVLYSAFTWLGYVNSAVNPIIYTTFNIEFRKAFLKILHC
UniProt P14416, 1-414 isoform 2: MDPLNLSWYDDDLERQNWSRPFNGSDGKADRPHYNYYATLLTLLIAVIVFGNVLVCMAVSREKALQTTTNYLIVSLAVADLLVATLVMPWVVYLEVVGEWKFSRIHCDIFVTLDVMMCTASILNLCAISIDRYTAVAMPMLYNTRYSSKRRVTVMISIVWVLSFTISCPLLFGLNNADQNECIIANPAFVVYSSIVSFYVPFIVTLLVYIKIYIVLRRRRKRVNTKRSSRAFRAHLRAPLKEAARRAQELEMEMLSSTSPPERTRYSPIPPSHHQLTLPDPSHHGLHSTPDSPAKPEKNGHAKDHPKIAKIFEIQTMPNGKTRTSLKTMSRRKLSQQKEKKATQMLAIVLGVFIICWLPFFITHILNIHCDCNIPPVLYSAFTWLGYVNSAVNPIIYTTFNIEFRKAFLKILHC
UniProt P35462, whole entry: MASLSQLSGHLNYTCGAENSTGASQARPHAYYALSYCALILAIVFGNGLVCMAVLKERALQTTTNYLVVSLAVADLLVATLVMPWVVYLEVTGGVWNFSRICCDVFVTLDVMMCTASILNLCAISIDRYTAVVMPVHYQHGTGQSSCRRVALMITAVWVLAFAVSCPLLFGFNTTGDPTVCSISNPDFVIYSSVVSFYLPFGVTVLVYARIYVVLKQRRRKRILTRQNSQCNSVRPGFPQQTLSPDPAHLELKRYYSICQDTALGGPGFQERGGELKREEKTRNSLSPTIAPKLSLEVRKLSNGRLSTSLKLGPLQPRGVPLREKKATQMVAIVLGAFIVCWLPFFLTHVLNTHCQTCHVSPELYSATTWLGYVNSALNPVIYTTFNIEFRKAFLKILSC

In experiment [1] the target is T1, human D2L (Homo sapiens, UniProt P14416). In words: [3H]spiperone competition/saturation binding, membranes of CHO cells expressing human D2L. The note with it: read-out: Ki ± s.d. hD2L; [³H]spiperone competition, CHO cell membranes; tested form: TFA salt.
The target of experiment [2] is human D2S (Homo sapiens, UniProt P14416). In words: [3H]spiperone competition/saturation binding, membranes of CHO cells expressing human D2S. As to conditions: read-out: Ki ± s.d. hD2S; [³H]spiperone competition, CHO cell membranes; tested form: TFA salt.
Experiment [3] deals with SNAP-D2L receptor. In words: Live-cell kinetic fluorescent ligand binding (association and dissociation). As to conditions: tested form: TFA salt; for dissociation time constant τ: CHO SNAP-D2L cells preincubated 60 min at 10-fold Ki, then 5 × 10^−6 M spiperone; for off-rate: one-phase exponential decay, 23°C, 5 x 10^-6 M spiperone in imaging buffer.
Experiment [4] concerns the target human D3 (Homo sapiens, UniProt P35462). Briefly: [3H]spiperone competition/saturation binding, membranes of CHO cells expressing human D3. As to conditions: read-out: Ki ± s.d. hD3; [³H]spiperone competition, CHO cell membranes; tested form: TFA salt.
In experiment [5] the target is T1, human D2L. Briefly: Single-molecule TIRF-M of wild-type D2L receptors in CHO cells labeled with fluorescent ligands. As to conditions: D2L wt in CHO cells labeled with fluorescent ligand, 10-fold Ki, mean ± s.d., tested form: TFA salt. The format is cell-based.
Experiment [6] has as its target SNAP-D2L receptor (Homo sapiens, UniProt P14416). Briefly: Single-molecule TIRF-M of SNAP-D2L receptors in CHO cells with ligands (dimerization, mobility, colocalization). As to conditions: tested form: TFA salt; for cell labeling by the fluorescent ligand after pretreatment with 10 μM spiperone (specificity): CHO cells stably expressing SNAP-D2L.

As to `COc1ccccc1N1CCN(Cc2ccc(OCCCc3cn(CCCCCCCCn4cc(CCCOc5ccc(CN6CCN(c7ccccc7OC)CC6)cc5OCCCCNC(=O)Cc5ccc6c(c5)C(C)(C)C5=C7C=C8C9=[N+](CCC8OC7CCN56)c5ccc(S(=O)(=O)[O-])cc5C9(C)C)nn4)nn3)c(OCCCCNC(=O)Cc3ccc4c(c3)C(C)(C)C3=C5C=C6C7=[N+](CCC6OC5CCN34)c3ccc(S(=O)(=O)[O-])cc3C7(C)C)c2)CC1` (centres unmarked), in experiment [1], the inhibition constant (Ki) was determined as 0.15 µM. Further, in experiment [2], the Ki was 0.11 µM. In experiment [3], the “dissociation time constant τ” value came to 55.2 min and the off-rate is 0.018 ± 0.0018 min⁻¹. The Ki in experiment [4] worked out at 0.056 µM. For the same compound, in experiment [5], the “Average Dlat 24°C (average lateral diffusion coefficient)” value is reported as 0.074 ± 0.016 µm² s-1 and the “Density (spots µm-2)” value was determined as 0.66 ± 0.04 spots µm-2. Also, the “cell labeling by the fluorescent ligand after pretreatment with 10 μM spiperone (specificity)” value in experiment [6] is “completely blocked”.
With `CCCCn1cc(CCCOc2ccc(CN3CCN(c4ccccc4OC)CC3)cc2OCCCCNC(=O)Cc2ccc3c(c2)C(C)(C)C2=C4C=C5C6=[N+](CCC5OC4CCN23)c2ccc(S(=O)(=O)[O-])cc2C6(C)C)nn1` (centres unmarked), the Ki amounted to 0.03 µM in experiment [1], 0.027 µM in experiment [2] and 0.044 µM in experiment [4]. The on-rate in experiment [3] (300 nM ligand, 37°C, one-phase exponential association fit, mean ± s.e.m.) stood at 0.204 ± 0.026 min⁻¹. Moreover, the “dissociation time constant τ” value in experiment [3] is reported as 27.6 min. For the same compound, the off-rate in experiment [3] came to 0.036 ± 0.0013 min⁻¹. Besides, the “Average Dlat 24°C (average lateral diffusion coefficient)” value came to 0.109 ± 0.006 µm² s-1 in experiment [5] and 0.080 ± 0.004 µm² s-1 in experiment [6] (SNAP-D2L in CHO cells, 10 x Ki value labeling concentration, 24°C, mean ± s.d.). The “Density (spots µm-2)” value in experiment [5] is on record as 0.64 ± 0.04 spots µm-2; in experiment [6] (SNAP-D2L in CHO cells, 10 x Ki value labeling concentration, mean ± s.d.), 0.66 ± 0.04 spots µm-2. Moreover, the “labeling of the receptors by the fluorescent ligand” value in experiment [6] (10-fold Ki, SNAP-D2L and wild type D2L, spot densities compared to Alexa546-BG labeling) is recorded as over 90%. Further, the “cell labeling by the fluorescent ligand after pretreatment with 10 μM spiperone (specificity)” value in experiment [6] is “completely blocked”.

For the origin of these results see publication PMC5018964, “Visualization and ligand-induced modulation of dopamine receptor dimerization at the single molecule level” (Scientific Reports, 2016).
